Measurements from patent EP0419081A2, “Method for protein binding enzyme complementation assays” (MICROGENICS CORPORATION, priority 1989, dated 1991).

Test system: EA 22
Details: ability to form active enzyme with EA in a 15 minute time frame relative to ED4

Question: For “m-maleimide-benzoyl-L-Thyroxine-ED₄ conjugate [ED4T4]”, which “Specific Activity (u/mg) (% ED4-T4) Kinetic” value is on record?
Answer: 100%
